## Binding of CDR-mutated scFvs to a peptide of the spike HR2 region

Antigen: PDVDLGDISGINAS, a 14-residue peptide of the SARS-CoV-2 spike HR2 region.

The variants keep the heavy chain, the linker and the frameworks of Ab-95 (scFv order VH, a (GGGGS)3 linker, VL).
VH: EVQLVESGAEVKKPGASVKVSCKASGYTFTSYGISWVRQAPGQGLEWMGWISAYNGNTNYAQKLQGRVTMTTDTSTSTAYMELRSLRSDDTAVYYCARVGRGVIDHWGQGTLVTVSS
VL: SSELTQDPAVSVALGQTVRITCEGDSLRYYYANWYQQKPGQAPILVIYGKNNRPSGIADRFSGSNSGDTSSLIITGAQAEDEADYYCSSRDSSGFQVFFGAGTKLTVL

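The parent was found by panning a naive human phage display library on the peptide. AAYL52 was designed without a model: most single CDR substitutions and a random sample of double and triple ones. The scFvs were displayed on barcoded MATa yeast, the peptide on MATalpha yeast. Pairs that bind mate more often; barcode pairs of the diploids are counted by sequencing. Each replicate has its own calibration line, from reference interactions of the BCL2 family. Mating was done three times.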

Each variant's VL is given in full.
Affinities are written as log10 Kd with Kd in nM; a lower number is a better binder.
The mean shown is taken over the replicates in which the pair was detected.
"ND" marks a missing value. The strain was present, yet no cells mated with the target were sequenced in that replicate, which points to weak or no binding.
For reference, the parent read 2.31 as the reference entry and 2.25 as a member of this library.
Background: pairings of library AAYL52 with three empty control strains gave a value in 28% of cases (median 3.91, 5th percentile 2.90). Values in that range, when seen in few replicates, are hard to tell from nonspecific mating. The control count says in how many pairings with the empty strains this scFv gave a signal, with their mean in brackets.

VL,"replicates, log10 nM","mean, log10 nM",empty controls
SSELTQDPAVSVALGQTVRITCEGDSLRYYYANWYQQKPGQAPILVIYHKNNRPSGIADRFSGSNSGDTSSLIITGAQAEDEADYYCYSRDSSGFQVAFGAGTKLTVL,3.32 / ND / ND,3.32,0/9
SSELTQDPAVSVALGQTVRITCEGDSLRGYYANWYQQKPGQAPILVIYGKNNRPSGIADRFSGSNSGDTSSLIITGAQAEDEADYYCSERDSSGFQVFFGAGTKLTVL,1.47 / 1.24 / 0.84,1.18,7/9 (3.94)
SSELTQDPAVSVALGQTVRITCEEDSLPYYYANWYQQKPGQAPILVIYGKNNRPSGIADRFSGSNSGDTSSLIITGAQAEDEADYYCSSRDSSGFQHFFGAGTKLTVL,4.89 / ND / 4.25,4.57,1/9 (4.19)
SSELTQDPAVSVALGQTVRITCEGDSLRYYYANWYQQKPGQAPILVIYGKNNRPCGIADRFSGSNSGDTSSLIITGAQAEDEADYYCSSRDSIKFQVFFGAGTKLTVL,ND / ND / 4.40,4.40,4/9 (3.78)
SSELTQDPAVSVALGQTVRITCEGSSLRYYYANWYQQKPGQAPILVIYGKNNRPSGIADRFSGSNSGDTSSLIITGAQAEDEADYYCSDRTSSGFQVFFGAGTKLTVL,ND / 4.90 / ND,4.90,1/9 (3.71)
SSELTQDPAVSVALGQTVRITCEGDNLRYYYANWYQQKPGQAPILVIYGKDNRPSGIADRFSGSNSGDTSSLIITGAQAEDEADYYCSSRDSSGFQVFFGAGTKLTVL,2.79 / 5.33 / 3.67,3.93,5/9 (4.07)
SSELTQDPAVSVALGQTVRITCEGVSLRYYYANWYQQKPGQAPILVIYGKNNRPSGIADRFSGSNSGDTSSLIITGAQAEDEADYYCNSRDSSGHQVFFGAGTKLTVL,2.93 / 3.26 / ND,3.10,2/9 (3.29)
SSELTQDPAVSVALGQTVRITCEEDYLRYYYANWYQQKPGQAPILVIYGKNNRPSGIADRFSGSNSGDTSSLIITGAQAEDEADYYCKSRDSSGFQVFFGAGTKLTVL,2.92 / ND / ND,2.92,0/9
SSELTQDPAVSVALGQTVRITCEGDSLRYYYFNWYQQKPGQAPILVIYGKNNRPSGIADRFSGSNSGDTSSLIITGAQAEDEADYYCSSRDSSGFRVNFGAGTKLTVL,3.60 / ND / ND,3.60,5/9 (4.32)
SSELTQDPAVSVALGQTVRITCEGDALRYYYANWYQQKPGQAPILVIYGKQNRPSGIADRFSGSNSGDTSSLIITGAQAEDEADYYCSSRFSSGFQVFFGAGTKLTVL,4.18 / 2.06 / 3.05,3.10,1/9 (3.99)
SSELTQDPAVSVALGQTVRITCEGDSLRYYYAFWYQQKPGQAPILVIYGKNNRPSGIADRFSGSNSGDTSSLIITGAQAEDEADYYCSSRDWSGFQVFFGAGTKLTVL,ND / 5.77 / ND,5.77,1/9 (4.37)
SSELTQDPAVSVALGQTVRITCEGWSLRYYYANWYQQKPGQAPILVIYGKNNRPSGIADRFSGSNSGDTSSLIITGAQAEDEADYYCESRDSSGFQVFFGAGTKLTVL,2.43 / 2.46 / 2.13,2.34,3/9 (3.88)
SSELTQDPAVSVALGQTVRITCDGDSLRYYYANWYQQKPGQAPILVIYGMNNRPSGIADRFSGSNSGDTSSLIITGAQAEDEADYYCSSRDSSGMQVFFGAGTKLTVL,3.61 / 3.38 / 3.37,3.45,8/9 (4.26)
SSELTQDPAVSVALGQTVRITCEGDSLRYYYANWYQQKPGQAPILVIYGKNNRLSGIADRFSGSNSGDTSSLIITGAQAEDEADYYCSSRDSSGFQVFFGAGTKLTVL,2.61 / 2.91 / 3.17,2.90,1/9 (3.26)
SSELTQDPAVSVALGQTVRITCEGDSLRQYYANWYQQKPGQAPILVIYGKNNKPSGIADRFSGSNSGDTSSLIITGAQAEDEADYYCSSRDSSIFQVFFGAGTKLTVL,2.51 / 2.42 / 2.49,2.47,6/9 (4.13)
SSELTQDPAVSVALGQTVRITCEGDSLRYYYANWYQQKPGQAPILVIYGKNNRCSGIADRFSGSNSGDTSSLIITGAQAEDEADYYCSSRDASGFQDFFGAGTKLTVL,ND / ND / ND,ND,1/9 (4.34)
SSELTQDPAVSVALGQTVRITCEGDSPRYYYANWYQQKPGQAPILVIYGKCNRPSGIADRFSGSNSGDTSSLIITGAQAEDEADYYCSSRDSSGFMVFFGAGTKLTVL,4.20 / ND / ND,4.20,4/9 (4.29)
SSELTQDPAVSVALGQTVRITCDGDSLRAYYANWYQQKPGQAPILVIYGKNNRPSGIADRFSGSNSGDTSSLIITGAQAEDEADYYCSSRDSSGFQVFFGAGTKLTVL,2.66 / 2.17 / 2.49,2.44,1/9 (3.82)
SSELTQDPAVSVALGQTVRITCEGDSLRYYYANWYQQKPGQAPILVIYGKNYRPSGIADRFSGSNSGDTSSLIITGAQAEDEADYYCSSRDQSGKQVFFGAGTKLTVL,3.94 / 3.26 / 4.06,3.76,2/9 (3.46)
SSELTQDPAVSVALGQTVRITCEGDSLRYVYANWYQQKPGQAPILVIYEKNNRPSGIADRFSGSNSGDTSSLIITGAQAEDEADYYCSSRDSMGFQVFFGAGTKLTVL,4.00 / 3.37 / 3.29,3.55,4/9 (4.42)
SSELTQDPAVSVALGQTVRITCEGDLLRYYYASWYQQKPGQAPILVIYGKNNRPSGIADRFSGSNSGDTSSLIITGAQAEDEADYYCSSGDSSGFQVFFGAGTKLTVL,3.77 / 3.56 / ND,3.67,1/9 (4.36)
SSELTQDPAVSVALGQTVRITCEGDSLRVYYANWYQQKPGQAPILVIYGKNNRPSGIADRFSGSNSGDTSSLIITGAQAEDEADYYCSDRCSSGFQVFFGAGTKLTVL,5.43 / 5.58 / ND,5.51,2/9 (4.43)
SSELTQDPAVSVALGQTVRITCEGDSLRYMYANWYQQKPGQAPILVIYGKNIRPSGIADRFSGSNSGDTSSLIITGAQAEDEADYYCSSRDSLGFQVFFGAGTKLTVL,1.81 / 1.91 / 1.91,1.88,1/9 (2.30)

Top 2 of the variants detected in all replicates, tightest first:

VL	replicates, log10 nM	mean, log10 nM	empty controls
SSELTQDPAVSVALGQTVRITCEGDSLRGYYANWYQQKPGQAPILVIYGKNNRPSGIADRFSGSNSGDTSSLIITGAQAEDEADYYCSERDSSGFQVFFGAGTKLTVL	1.47 / 1.24 / 0.84	1.18	7/9 (3.94)
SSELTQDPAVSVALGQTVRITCEGDSLRYMYANWYQQKPGQAPILVIYGKNIRPSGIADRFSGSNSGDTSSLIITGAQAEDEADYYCSSRDSLGFQVFFGAGTKLTVL	1.81 / 1.91 / 1.91	1.88	1/9 (2.30)

Values reported by Engelhart et al. 2022, doi:10.1038/s41597-022-01779-4 (FLAb copy).